# In US7166726B2, “Aryl substituted 3,4-dihydroanthracene derivatives having retinoid antagonist or retinoid inverse agonist type biological activity” (Allergan, Inc., priority 1996, dated 2007):
# The chains behind the UniProt entries cited, without tags or fusion partners.
# UniProt P10276, whole entry, species assumed: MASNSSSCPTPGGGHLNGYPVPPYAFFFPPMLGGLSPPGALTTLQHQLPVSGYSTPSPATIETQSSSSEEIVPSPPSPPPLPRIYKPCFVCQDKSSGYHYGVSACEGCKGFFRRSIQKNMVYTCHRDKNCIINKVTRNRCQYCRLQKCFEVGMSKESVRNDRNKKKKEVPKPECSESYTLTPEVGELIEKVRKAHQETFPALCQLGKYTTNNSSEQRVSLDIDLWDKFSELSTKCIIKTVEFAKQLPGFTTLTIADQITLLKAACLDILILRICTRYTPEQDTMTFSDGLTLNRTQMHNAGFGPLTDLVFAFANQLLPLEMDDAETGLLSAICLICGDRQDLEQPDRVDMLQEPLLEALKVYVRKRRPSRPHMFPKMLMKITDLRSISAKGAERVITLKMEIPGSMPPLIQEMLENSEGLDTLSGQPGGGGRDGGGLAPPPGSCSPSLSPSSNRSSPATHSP
# UniProt P10826, whole entry, species assumed: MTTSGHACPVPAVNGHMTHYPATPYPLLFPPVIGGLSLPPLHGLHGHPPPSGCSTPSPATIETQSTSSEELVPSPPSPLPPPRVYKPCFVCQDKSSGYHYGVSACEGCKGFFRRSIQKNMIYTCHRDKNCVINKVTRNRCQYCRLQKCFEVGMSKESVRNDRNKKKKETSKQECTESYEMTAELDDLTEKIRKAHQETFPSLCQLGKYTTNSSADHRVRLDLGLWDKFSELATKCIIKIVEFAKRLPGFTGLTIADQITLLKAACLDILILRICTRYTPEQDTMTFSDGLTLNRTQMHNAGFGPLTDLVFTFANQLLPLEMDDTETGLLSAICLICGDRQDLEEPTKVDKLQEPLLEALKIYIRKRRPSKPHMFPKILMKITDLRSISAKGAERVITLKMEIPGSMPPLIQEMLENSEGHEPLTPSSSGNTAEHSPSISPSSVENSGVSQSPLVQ
# UniProt P13631, whole entry, species assumed: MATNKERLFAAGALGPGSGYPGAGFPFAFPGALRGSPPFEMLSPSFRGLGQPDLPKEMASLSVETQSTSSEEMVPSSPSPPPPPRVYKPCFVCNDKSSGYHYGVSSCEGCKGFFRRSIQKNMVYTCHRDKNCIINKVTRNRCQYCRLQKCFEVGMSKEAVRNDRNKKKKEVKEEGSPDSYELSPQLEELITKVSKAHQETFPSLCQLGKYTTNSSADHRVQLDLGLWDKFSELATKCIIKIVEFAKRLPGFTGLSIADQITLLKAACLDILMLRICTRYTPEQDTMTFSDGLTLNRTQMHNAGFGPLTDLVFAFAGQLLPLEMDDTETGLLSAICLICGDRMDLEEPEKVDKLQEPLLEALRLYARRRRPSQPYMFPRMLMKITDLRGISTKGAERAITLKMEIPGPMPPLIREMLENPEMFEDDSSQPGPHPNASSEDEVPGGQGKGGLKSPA
# Assays:
# [1] = target: RARα (Homo sapiens, UniProt P10276); assay: Ligand binding assay, RARα
# Source text: (§1) A holoreceptor transactivation assay and a ligand binding assay which measure the antagonist/agonist like activity of the compounds of the invention, or their ability to bind to the several retinoid receptor subtypes, respectively, are described in published PCT Application No. WO WO93/11755 (particularly on pages 30–33 and 37–41) published on Jun. 24, 1993, the specification of which is also incorporated herein by reference. A description of the holoreceptor transactivation assay is also provided below.
# (§2) CV1 cells (5,000 cells/well) were transfected with an RAR reporter plasmid MTV-TREp-LUC (50 ng) along with one of the RAR expression vectors (10 ng) in an automated 96-well format by the calcium phosphate procedure of Heyman et al. Cell 68, 397–406, (1992). For RXRα and RXRγ transactivation assays, an RXR-responsive reporter plasmid CRBPII-tk-LUC (50 ng) along with the appropriate RXR expression vectors (10 ng) was used substantially as described by Heyman et al. above, and Allegretto et al. J. Biol. Chem. 268, 26625–26633. For RXRβ transactivation assays, an RXR-responsive reporter plasmid CPRE-tk-LUC ([…]) along with RXRβ expression vector ([…]) was used as described in above. These reporters contain DRI elements from human CRBPII and certain DRI elements from promoter, respectively. […]
# [2] = target: RARβ (Homo sapiens, UniProt P10826); assay: Ligand binding assay, RARβ
# Source text: as §1, §2
# [3] = target: RARγ (Homo sapiens, UniProt P13631); assay: Ligand binding assay, RARγ; conditions: read-out: Kd TATγ
# Source text: as §1, §2
substance,measurement,setting,value
"4-[1(5-Methyl-thien-2-yl)3,4-dihydro-4,4-dimethyl-anthracen-8-yl]-benzoic acid [Compound 4]",Kd,[1],15 nM
same,Kd,[2],6 nM
same,Kd,[3],11 nM
